The values below come from patent US11319306B2, “Compositions and methods for treating neurodegenerative diseases” (Azevan Pharmaceuticals, Inc., priority 2014, dated 2022).

Chains of the proteins cited; added tags and fusions are not shown.
UniProt P37288, whole entry: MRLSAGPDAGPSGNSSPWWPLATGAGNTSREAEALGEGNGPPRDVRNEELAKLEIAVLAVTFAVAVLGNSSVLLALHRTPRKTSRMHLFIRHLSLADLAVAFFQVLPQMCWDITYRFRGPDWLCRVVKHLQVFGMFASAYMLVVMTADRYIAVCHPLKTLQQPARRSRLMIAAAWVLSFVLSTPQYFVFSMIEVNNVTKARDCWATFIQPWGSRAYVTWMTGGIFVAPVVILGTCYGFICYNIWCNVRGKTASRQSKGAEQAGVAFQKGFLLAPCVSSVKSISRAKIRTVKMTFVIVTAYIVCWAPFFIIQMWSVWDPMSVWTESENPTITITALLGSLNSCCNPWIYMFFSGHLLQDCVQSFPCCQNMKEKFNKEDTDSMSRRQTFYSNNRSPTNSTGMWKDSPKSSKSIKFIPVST

The assay deals with T1, human V1a receptor (Homo sapiens, UniProt P37288).
T1 construct: host or cells: CHO cells (hV1a cell line)
Put plainly: Human vasopressin V1a receptor binding assay (3H-AVP competition, hV1a CHO cells). The note with it: CHO cells expressing human V1a. The protocol:
Human vasopression V1a receptor binding assay. A cell line expressing the human V1a receptor in CHO cells (henceforth referred to as the hV1a cell line) was obtained from Dr. Michael Brownstein, NIMH, Bethesda, Md., USA. The hV1a cDNA sequence is described by Thibonnier et al., Journal of Biological Chemistry, 269, 3304-3310 (1994), and the expression method was the same as described by Morel et al. (1992). The hV1a cell line was grown in alpha-MEM with 10% fetal bovine serum and 250 ug/ml G418 (Gibco, Grand Island, N.Y., USA). For competitive binding assay, hV1a cells were plated into 6-well culture plate at 1:10 dilution from a confluency flask, and maintained in culture for at least two days. Culture medium was then removed, cells were washed with 2 ml binding buffer (25 mM Hepes, 0.25% BSA, 1×DMEM, PH=7.0). To each well, 990 μl binding buffer containing InM 3H-AVP was added, and followed by 10 μl series diluted Example compounds dissolved in DMSO. […] 100 nM cold AVP (Sigma) was used to assess non-specific binding. Cells were incubated for 45 minutes at 37° C., assay mixture was removed and each well was washed three times with PBS (pH=7.4). 1 ml 2% SDS was added per well and plates were let sit for 30 minutes. […] Samples were counted in a liquid scintillation counter (Beckman LS3801). IC50 values were calculated by Prism Curve fitting software. […]

On to `O=C(NCc1cccc(C(F)(F)F)c1F)C(CC(=O)N1CCC(N2CCCCC2)CC1)N1C(=O)C(N2C(=O)OCC2c2ccccc2)C1C=Cc1ccccc1` [Example 222, 2(R)-[[4-(Piperidinyl)piperidinyl]carbonylmethyl]-2-[3(S)-(4(S)-phenyloxazolidin-2-on-3-yl)-4(R)-(2-styryl)azetidin-2-on-1-yl]acetic acid N-(2-fluoro-3-trifluoromethylbenzyl)carboxamide], for which the affinity, expressed as Ki, was 1.13 nM. The IC50 (as a rule, the concentration that gives 50% inhibition) (read-out: V1a Binding Affinity IC50) stood at 1.83 nM.
